To fix the notation:
T1: LIN28A (human?, UniProt Q9H9Z2 1-209)
T1 sequence: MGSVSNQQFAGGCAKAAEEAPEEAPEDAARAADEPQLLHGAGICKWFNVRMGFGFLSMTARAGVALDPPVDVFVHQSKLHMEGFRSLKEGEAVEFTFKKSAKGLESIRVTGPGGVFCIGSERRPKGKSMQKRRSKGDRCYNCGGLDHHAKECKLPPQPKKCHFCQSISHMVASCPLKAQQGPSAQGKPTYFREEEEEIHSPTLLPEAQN

T2: CIRBP (Homo sapiens, UniProt Q14011 1-172)
T2 sequence: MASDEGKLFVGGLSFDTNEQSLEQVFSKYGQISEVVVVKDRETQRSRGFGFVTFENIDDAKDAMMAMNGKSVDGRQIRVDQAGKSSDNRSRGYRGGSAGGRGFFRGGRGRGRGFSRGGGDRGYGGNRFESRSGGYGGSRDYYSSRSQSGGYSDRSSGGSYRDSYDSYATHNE

T3: DHX36 (Homo sapiens, UniProt Q9H2U1 1-1008)
T3 sequence: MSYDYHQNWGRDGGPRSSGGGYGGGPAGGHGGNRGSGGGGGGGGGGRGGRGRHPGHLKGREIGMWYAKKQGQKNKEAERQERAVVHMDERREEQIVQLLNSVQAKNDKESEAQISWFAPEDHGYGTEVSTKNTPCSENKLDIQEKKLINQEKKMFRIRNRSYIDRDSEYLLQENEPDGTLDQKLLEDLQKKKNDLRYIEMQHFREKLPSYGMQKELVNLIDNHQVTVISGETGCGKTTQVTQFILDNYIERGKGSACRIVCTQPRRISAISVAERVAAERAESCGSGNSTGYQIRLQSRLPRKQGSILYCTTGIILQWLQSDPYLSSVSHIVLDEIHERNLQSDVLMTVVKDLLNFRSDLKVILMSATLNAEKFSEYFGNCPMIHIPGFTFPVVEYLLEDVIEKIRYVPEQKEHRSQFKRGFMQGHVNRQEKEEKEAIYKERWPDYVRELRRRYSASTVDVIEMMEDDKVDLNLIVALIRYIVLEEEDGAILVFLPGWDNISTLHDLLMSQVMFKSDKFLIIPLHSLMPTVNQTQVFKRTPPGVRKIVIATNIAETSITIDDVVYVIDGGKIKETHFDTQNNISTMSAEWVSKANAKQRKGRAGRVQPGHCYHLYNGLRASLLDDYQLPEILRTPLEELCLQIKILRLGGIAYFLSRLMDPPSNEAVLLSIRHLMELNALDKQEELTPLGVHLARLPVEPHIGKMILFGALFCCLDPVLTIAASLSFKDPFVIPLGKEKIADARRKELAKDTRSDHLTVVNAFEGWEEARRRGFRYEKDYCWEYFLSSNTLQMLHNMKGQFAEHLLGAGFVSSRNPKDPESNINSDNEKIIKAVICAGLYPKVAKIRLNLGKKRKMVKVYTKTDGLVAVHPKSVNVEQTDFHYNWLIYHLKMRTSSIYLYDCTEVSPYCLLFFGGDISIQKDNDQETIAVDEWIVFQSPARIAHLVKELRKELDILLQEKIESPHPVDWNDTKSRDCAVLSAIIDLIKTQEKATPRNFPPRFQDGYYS

B1: hsa-mir-6779 (structured_RNA)
RNA: GGGAGGGAUGUUUAAUUGACGAGCCUAAGGUGUACGAAGUUUCAGCGUUUGGCAGGACAGUUUCCAAGCGCUGAAGCUUCGUGCAC
B2: hsa-mir-4455 (structured_RNA)
RNA: GGGAACGUGUUCGUAUGACAGCUACUCGGGUGUACGAAGUUUCAGCUUUUCCUGAGAAUAAGAGAAGGAAGGGCUGAAGCUUCGUGCAC
B3: hsa-mir-649 (structured_RNA)
RNA: GGGAACUUUCAGGCGCUUUCAAGGUACGGGUGUACGAAGUUUCAGCGUUGAAAAAUAUCUAUGUAUUAGUAAACGCUGAAGCUUCGUGCAC
B4: hsa-mir-4495 (structured_RNA)
RNA: GGGAAAGGCAUCCCAAGGGUGUAAUCCGGGUGUACGAAGUUUCAGCUGCUCAGUGGAGUUAUUUUGAGCAGCUGAAGCUUCGUGCAC
B5: hsa-mir-3139 (structured_RNA)
RNA: GGGAAUUAUGCGAAGGCAGCCGGCAAACGGUGUACGAAGUUUCAGCUGUUGACUGAAUAAUAAACAGCUGAAGCUUCGUGCAC
B6: hsa-mir-6755 (structured_RNA)
RNA: GGGACCGAGAAGGAAUUGGUUCUAUGACGGUGUACGAAGUUUCAGCAACGUUAUGUGUGGUCUUUAACCUGUUGCUGAAGCUUCGUGCAC
B7: hsa-mir-5191 (structured_RNA)
RNA: GGGAAUACUACAUAAGCUUGUGAGAGGCGGUGUACGAAGUUUCAGCUCCUCUCCUGGUCUGGGAGGAUAGAAGAGAGGAGCUGAAGCUUCGUGCAC
B8: hsa-mir-4793 (structured_RNA)
RNA: GGGAAUGUUAGCGUGUAUACGGUCUGUCGGUGUACGAAGUUUCAGCCAGAGGGAGGCCAAGAAGACCUCUGGCUGAAGCUUCGUGCAC
B9: PARIS_ID48 (structured_RNA)
RNA: GGGAACGACGGAUGACGUCUUGAUAUGUGGUGUACGAAGUUUCAGCUGUAUAUAUAUAUAUUUAAUUUCAAUGGCUUUUGGGGUACAAAUGGCUUUUGGUCAUAUAUAUGAGUUCUACAGCUGAAGCUUCGUGCAC
B10: hsa-mir-302b (structured_RNA)
RNA: GGGAAGCAAGGUUGAGGCACCACACAUCGGUGUACGAAGUUUCAGCCUUUCUGUGACUUUAAAAGUAAGGCUGAAGCUUCGUGCAC
B11: hsa-mir-6788 (structured_RNA)
RNA: GGGAAAGACAUCAGUUCGUCUGGGCCACGGUGUACGAAGUUUCAGCUGAAGAAGAGUAUUGAUUGUGCUGUUCGGCUGAAGCUUCGUGCAC
B12: hsa-mir-4479 (structured_RNA)
RNA: GGGAAGCUCAGGCAGUGGGCUAUAAGAGGGUGUACGAAGUUUCAGCGCGCGGGAAAGUUCGGGAACGCGCGGCUGAAGCUUCGUGCAC
B13: hsa-mir-4677 (structured_RNA)
RNA: GGGAAGAAUAGUUGGCGUCCCAUUUCGCGGUGUACGAAGUUUCAGCCAGCCAUGACCUGACCUUCUGUCUGGCUGAAGCUUCGUGCAC
B14: hsa-mir-3617 (structured_RNA)
RNA: GGGAAAAGGCGCUCCGACUGCUUUCUAAGGUGUACGAAGUUUCAGCGAUGGGAUUAGAAACCAUAUGUCUCAUCGCUGAAGCUUCGUGCAC
B15: hsa-mir-6782 (structured_RNA)
RNA: GGGAGAGCAUUAGUCGCACAUGAUCAUGGGUGUACGAAGUUUCAGCGGUGUCGAACUCAUGGCUGCCACCGCUGAAGCUUCGUGCAC
B16: hsa-mir-4653 (structured_RNA)
RNA: GGGAAGAUACGUCUCGUAUGAACUUGCAGGUGUACGAAGUUUCAGCCACCAAAGGGUUAAGGGUUUGCUCUGGAGGCUGAAGCUUCGUGCAC
B17: hsa-mir-8070 (structured_RNA)
RNA: GGGAAAUUCUCGCUGACAACGGUUGCUGGGUGUACGAAGUUUCAGCCCAUGUGAGUGAAGCCUGAUCAUCAUGUGGCUGAAGCUUCGUGCAC
B18: hsa-mir-181a-2 (structured_RNA)
RNA: GGGAGCGCCUUCCACCCGAUGUUGUAUCGGUGUACGAAGUUUCAGCGAGUUUGGGAUUUGAAAAAACCGCUGAAGCUUCGUGCAC
B19: NEAT1_ParasoR_ID8 (structured_RNA)
RNA: GGGAAUUGUGAUCGCAUAGGGAGCCCGAGGUGUACGAAGUUUCAGCUGCUUUCUUUAAUUGUUUUUUAAUAAUGUGGUAAGCAGCUGAAGCUUCGUGCAC
B20: hsa-mir-122 (structured_RNA)
RNA: GGGAACCUUACGUACGGGCGAAAUCAGAGGUGUACGAAGUUUCAGCUGUUUGUGUCUAAACUAUCAAACGGCUGAAGCUUCGUGCAC
B21: hsa-mir-5187 (structured_RNA)
RNA: GGGAAGAUUUGUAGAGGUGCCCGGACGGGGUGUACGAAGUUUCAGCAAGUGGAGCAGGAAUGCGCUUUUCUCCACUGGCUGAAGCUUCGUGCAC
B22: hsa-mir-5193 (structured_RNA)
RNA: GGGACCGGAUGAAGGUCCUCGUCUAACAGGUGUACGAAGUUUCAGCGGGAGGUAAGAAGUCUCUGACUCCUGCUGAAGCUUCGUGCAC
B23: hsa-mir-3065 (structured_RNA)
RNA: GGGAACAGACCGGAGCGAACCUUUCUCCGGUGUACGAAGUUUCAGCCUGGAGUCGCCUGAGUCAUCACUCAGGCUGAAGCUUCGUGCAC
B24: hsa-mir-664b (structured_RNA)
RNA: GGGAAGUACCGACUGACAUUCCUCGGCUGGUGUACGAAGUUUCAGCUGGGUAGAAAGUAUUAUUCUAUUCAGCUGAAGCUUCGUGCAC
B25: hsa-mir-944 (structured_RNA)
RNA: GGGACCACACCUGAGGCCGUUGAUUCUAGGUGUACGAAGUUUCAGCUUUUCUUAAAUUGUAUAAAGAGAAAUGCUGAAGCUUCGUGCAC

The other results are listed elsewhere or left out.

The target of one experiment is T1, LIN28A. Briefly: FOREST: bead pull-down of RNA structure library v1, barcode microarray; U1A/LIN28A: 20 mM HEPES pH 7.5, 80 mM KCl, 20 mM NaCl, 10% glycerol, 2 mM DTT, 0.1 ug/uL BSA, 4 C; BG4/CIRBP/DHX36: 10 mM Tris-HCl pH 7.5, 100 mM KCl (or LiCl),; high values mean tight binding.
B1 displayed a binding signal of 1.1 z-score.
Molecule B2 returned a binding signal of 1.07 z-score.
Take B3: the binding signal turned out to be 1.11 z-score.
The same measure, in the same setting: the value for B4 was 1.07 z-score; that for B5 was 1.03 z-score; that for B6 was 1.12 z-score.
Consider B7, for which the binding signal turned out to be 1.03 z-score.
For the molecule B8, the binding signal turned out to be 1.01 z-score.
In the case of B9, the binding signal is 1.02 z-score.
Molecule B10 had a binding signal of 1.01 z-score.
The same measure, in the same setting: the value for B11 was 1.05 z-score; that for B12 was 1.07 z-score; that for B13 was 1.09 z-score.
B14 gave a binding signal of 1.11 z-score.
Regarding B15, the binding signal came out at 1.11 z-score.
As to B16, the binding signal was 1.12 z-score.
Still for that read-out and setting: the value for B17 was 1.11 z-score.
Still for that read-out and setting: to B18 belongs 1.04 z-score; to B19, 1.02 z-score.
The molecule B20 yielded a binding signal of 1.05 z-score.
Still for that read-out and setting: to B21 belongs 1.03 z-score.
Molecule B22 gave a binding signal of 1.09 z-score.
The molecule B23 yielded a binding signal of 1.08 z-score.
On the same count and under the same terms, the value for B24 was 1.12 z-score.
B25: the binding signal came to 1.03 z-score.

Another experiment has as its target T2, CIRBP. Described as above.
B1: the binding signal was determined as 0.487 z-score.
Regarding B2, the binding signal was -0.0675 z-score.
The molecule B3 returned a binding signal of 1.04 z-score.
With B4, the binding signal is -0.736 z-score.
Regarding B5, the binding signal was 0.487 z-score.
Still for that read-out and setting: the value for B6 was 0.197 z-score; that for B7 was 0.256 z-score; that for B8 was 1.05 z-score.
As to B9, the binding signal is -0.288 z-score.
For the molecule B10, the binding signal was 0.381 z-score.
As to B11, the binding signal was 0.828 z-score.
On to B12, for which the binding signal was 0.684 z-score.
Molecule B13 displayed a binding signal of 2.17 z-score.
Take B14: the binding signal came to 1.58 z-score.
B15 returned a binding signal of 0.97 z-score.
On to B16, for which the binding signal amounted to 1.01 z-score.
Regarding B17, the binding signal was 1.03 z-score.
B18: the binding signal was -0.901 z-score.
B19 gave a binding signal of 0.299 z-score.
In turn, B20 yielded a binding signal of 1.53 z-score.
As for B21, the binding signal came out at 0.946 z-score.
B22: the binding signal is -0.251 z-score.
Take B23: the binding signal was -0.734 z-score.
With B24, the binding signal stood at 1.32 z-score.
In the case of B25, the binding signal was -0.818 z-score.

A further experiment deals with T3, DHX36. Described as above.
On to B1, for which the binding signal is -1.22 z-score.
Same read-out and setting: the value for B2 was -0.809 z-score; that for B3 was 0.336 z-score; that for B4 was -0.786 z-score.
On the same count and under the same terms, to B5 belongs -0.0807 z-score.
Still for that read-out and setting: the value for B6 was -0.375 z-score; that for B7 was 0.367 z-score.
For B8, the binding signal stood at 0.34 z-score.
Turning to B9, the binding signal is 0.776 z-score.
The same measure, in the same setting: to B10 belongs 0.392 z-score; to B11, -0.469 z-score.
In the case of B12, the binding signal is -0.468 z-score.
As to B13, the binding signal turned out to be 0.94 z-score.
Molecule B14 came in with a binding signal of 1.2 z-score.
B15 gave a binding signal of 0.445 z-score.
The molecule B16 yielded a binding signal of 0.127 z-score.
B17: the binding signal is -0.0559 z-score.
With B18, the binding signal was determined as 0.0668 z-score.
Molecule B19 returned a binding signal of 0.0292 z-score.
Same read-out and setting: the value for B20 was -0.0106 z-score; that for B21 was -0.418 z-score; that for B22 was 0.36 z-score.
As to B23, the binding signal was -0.223 z-score.
B24: the binding signal was -0.328 z-score.
As to B25, the binding signal is -1.1 z-score.
